# Results as given in PMC5187433, “A bromodomain–DNA interaction facilitates acetylation-dependent bivalent nucleosome recognition by the BET protein BRDT” (Nature Communications, 2016).
# System: H4K5acK8ac nucleosomes
# Experiment: ITC, nucleosome binding
# Design: species or system human
# Settings: not given
row,"Reduction of nucleosome-binding affinity by mutation, compared with WT N-BRDT(1) [fold]",Substance
1,~3.5,N-BRDT(1)-KS2: N-BRDT(1) single point mutation of the central lysine (K41S)

# System: 167 bp Widom DNA
# Experiment: EMSA, DNA binding
# Settings: 167 bp DNA, 30 min, 4 °C, pH 7.5, ethidium bromide
row,Substance,Interaction with DNA
1,BRD2-BD2: BRD2(2) (aas 348–455),do
2,"N-BRDT(1)-3KS: N-BRDT(1) triple mutant, lysines K37, K41 and K45 to serine",abolished DNA binding

# Further lines, results first:
row,Interaction with DNA,Substance
1,does not interact with DNA,BRD3-BD1: BRD3(1) (aas 24–144)
2,most pronounced effect,N-BRDT(1)-KS2: N-BRDT(1) single point mutation of the central lysine (K41S)
3,do,BRD2-BD1: codon-optimized BRD2(1) (aas 48–184)
4,do,BRD3-BD2: BRD3(2) (aas 306–416)
